Laboratory results: patent US20160120858A1, “PHARMACEUTICAL COMPOSITION CONTAINING CLIOQUINOL FOR TREATING AUTISM SPECTRUM DISORDERS” (ACADEMIA SINICA, priority 2014, published 2016)
“Also recorded” adds a separate entry of the source.

Assays:
AMPAR = assay: AMPA-fEPSPs, input-output and paired pulse ratio, hippocampal slices; assay type: cell-based, mouse; settings: 4 uM, WT and Shank2^−/− SC-CA1 synapses
Procedure: For electrophysiological experiments, sagittal hippocampal slices (400 uM thick for extracellular, 300 uM thick for intracellular recordings) of Shank2^-/- mice (or ZnT3^-/- mice) and their wild-type littermates were prepared using a vibratome (Leica VT1200) in ice-cold dissection buffer containing (in mM) 212 sucrose, 25 NaHCO3, 5 KCl, 1.25 NaH2PO4, 0.5 CaCl2, 3.5 MgSO4, 10 D-glucose, 1.25 L-ascorbic acid, and 2 Na-pyruvate bubbled with 95% 02/5% CO2. CA3 was removed to prevent epileptiform activity. Slices were restored for 1 hour in 32° C. in a normal artificial CSF (ACSF) (In units of mM: 124 NaCl, 2.5 kCl, 1 NaH2PO4, 25 NaHCO3, 10 glucose, 2 CaC12, 2 Mg504 oxidized by 95% 02/5% CO2) For the recording, a single slice was moved to and maintained in submerged-type chamber at 28° C., continuously perfused with ACSF (2 mL/minute) saturated with 95% 02/5% CO2. Stimulation and recording pipettes were pulled from borosilicate glass capillaries (Harvard Apparatus) using a micropipette electrode puller ([…]). […] Field excitatory postsynaptic potentials (fEPSPs) were recorded in the stratum radiatum of the hippocampal CA1 region using pipettes filled with ACSF (1 MΩ). fEPSP was amplified (Multiclamp 700B, Molecular Devices), and digitized (Digidata 1440A, Molecular Devices) for measurements. […]

NMDAR [1] = assay: NMDA/AMPA ratio of eEPSCs (−70 mV/+40 mV), whole-cell patch-clamp, hippocampal slices; assay type: cell-based, mouse; settings: 4 uM bath-applied
Procedure: For electrophysiological experiments, sagittal hippocampal slices (400 uM thick for extracellular, 300 uM thick for intracellular recordings) of Shank2^−/− mice (or ZnT3^−/− mice) and their wild-type littermates were prepared using a vibratome (Leica VT1200) in ice-cold dissection buffer containing (in mM) 212 sucrose, 25 NaHCO3, 5 KCl, 1.25 NaH2PO4, 0.5 CaCl2, 3.5 MgSO4, 10 D-glucose, 1.25 L-ascorbic acid, and 2 Na-pyruvate bubbled with 95% 02/5% CO2. CA3 was removed to prevent epileptiform activity. Slices were restored for 1 hour in 32° C. in a normal artificial CSF (ACSF) (In units of mM: 124 NaCl, 2.5 kCl, 1 NaH2PO4, 25 NaHCO3, 10 glucose, 2 CaC12, 2 Mg504 oxidized by 95% 02/5% CO2) For the recording, a single slice was moved to and maintained in submerged-type chamber at 28° C., continuously perfused with ACSF (2 mL/minute) saturated with 95% 02/5% CO2. Stimulation and recording pipettes were pulled from borosilicate glass capillaries (Harvard Apparatus) using a micropipette electrode puller (Narishege).
Whole-cell patch-clamp recordings of hippocampal CA1 pyramidal neurons were also made using a MultiClamp 700B amplifier (Molecular Devices) and Digidata 1440A (Molecular Devices). During whole-cell patch-clamp recordings, series resistance was monitored each sweep by measuring the peak amplitude of the capacitance currents in response to short hyperpolarizing step pulse (5 mV, 40 ms); only cells with a change in <25% were included in the analysis. […] AMPAR-mediatedEPSCs were recorded at −70 mV, and 30 consecutive responses were recorded after stable baseline. […] NMDA component was measured at 60 ms after the stimulation. The NMDA/AMPA ratio was determined by dividing the mean value of 30 NMDA components of EPSPs by the mean value of 30 AMPAR-mediated EPSC peak amplitudes. […] AMPAR-mediated EPSC was determined as a peak amplitude of EPSC, and NMDAR-mediated EPSC as a component at 60 ms after stimulation. NMDA/AMPA ratio at −40 mV was calculated by using both values, and monitored during the experimental process. […]

ZnT3 protein = ZnT3 protein level in whole brain crude synaptosomes (immunoblot); assay type: in vivo, mouse; settings: WT and Shank2^−/− mice (8 weeks); 30 mg/kg i.p. 2 hours before sample preparation
Procedure: Mice were acutely injected with CQ (30 mg/kg; i.p.) 2 hours before sample preparation and immunoblot analysis. (n=4 for each group, NS indicates “not significant”, one-way ANOVA).
Crude synaptosomes were prepared from Shank2^−/−mice (Won H, et al. Autistic-like social behavior in Shank2-mutant mice improved by restoring NMDA receptor function. Nature 486, 261-265 (2012)). In other words, mouse brains (2 months old) were homogenized in ice-cold homogenization buffer (0.32 M sucrose, 10 mM HEPES pH 7.4, 2 mM EDTA, protease inhibitors, phosphatase inhibitors). Homogenates were centrifuged at 900×g for 10 minutes. The resulting supernatant was centrifuged again at 12,000×g for 15 minutes. The pellet was resuspended in homogenization buffer and centrifuged at 13,000×g for 15 minutes (the resulting pellet is P2; crude synaptosomes).

Tbr1^+/− mice = assay: Three-chamber social interaction assay, Tbr1 mice; assay type: in vivo, mouse; settings: 30 mg/kg, 3 hours before test
Excerpt: (§1) All mice were backcrossed into a C57BL/6 background, and housed and bred in a mouse vivarium at the Korea Advanced Institute of Science and Technology (KAIST, Shank2^−/−mice) and at Academia Sinica (Tbr1^+/− mice). Pups were kept with the dam until weaning at postnatal day 21. After weaning, animals were group housed in mixed-genotype groups of 3 to 5 mice per cages, and randomly subjected to electrophysiological and behavioral experiments. Animals at 3 to 5 weeks of age were used for electrophysiological experiments; male animals at 2 to 4 months of age were used for behavioral assays. For TFL-Zn staining, male animals at 8 weeks (for Shank2^−/−mice) were used. Wild-type littermates were used as controls.
(§2) The injection was performed 2 hours before (Shank2^−/− mice and wild-type littermates), or 3 hours before (Tbr1^+/− mice and wild-type littermates) behavioral assays at the discretion of the facility.
(§3) Testing was conducted in dedicated behavioral test rooms during the light phase (three-chamber test) and the dark phase (repetitive behaviors and open field test).
(§4) In short, the assay consisted of three phases of 10 minutes duration: habituation, social interaction (Stranger1 vs. Object), and social novelty recognition (Stranger 1 vs. Stranger 2). Exploration was defined as each instance in which wild-type or mutant mouse tries to sniff Object/Stranger, or orients its nose towards and come close to object/stranger. Individual movement tracks were analyzed by Ethovision 10.0 (Noldus) and modified by custom-designed software MatLab (Mathworks) to generate heat maps. Time spent in exploration was analyzed by the researcher who was blinded to the subject genotype (in Shank2 mice), or by using the Smart Video Tracking System (Panlab, in Tbr1 mice). In addition to exploration time, the preference index, which represents a numerical difference between time spent exploring the targets (Stranger1 vs. Object, or Stranger 2 vs. Stranger 1) divided by total time spent exploring both targets, as described previously.

Shank2^−/− mice = assay: Three-chamber social interaction assay, Shank2 mice; assay type: in vivo, mouse; settings: 30 mg/kg i.p., 2 hours prior to test
Excerpt: as §1, §2, §3, §4
Two hours after CQ treatment, the mice were subjected to a three-chamber social interaction test, which compares the preference of a mouse for a stranger mouse versus a novel inanimate object.

NMDAR [2] = assay: Simultaneous NMDA- and AMPA-eEPSCs at −40 mV, patch-clamp, hippocampal slices; assay type: cell-based, mouse; settings: CQ 4 uM, WT and Shank2^−/− SC-CA1 synapses
Procedure: For electrophysiological experiments, sagittal hippocampal slices (400 uM thick for extracellular, 300 uM thick for intracellular recordings) of Shank2^−/− mice (or ZnT3^−/− mice) and their wild-type littermates were prepared using a vibratome (Leica VT1200) in ice-cold dissection buffer containing (in mM) 212 sucrose, 25 NaHCO3, 5 KCl, 1.25 NaH2PO4, 0.5 CaCl2, 3.5 MgSO4, 10 D-glucose, 1.25 L-ascorbic acid, and 2 Na-pyruvate bubbled with 95% 02/5% CO2. CA3 was removed to prevent epileptiform activity. […]
Whole-cell patch-clamp recordings of hippocampal CA1 pyramidal neurons were also made using a MultiClamp 700B amplifier (Molecular Devices) and Digidata 1440A (Molecular Devices). During whole-cell patch-clamp recordings, series resistance was monitored each sweep by measuring the peak amplitude of the capacitance currents in response to short hyperpolarizing step pulse (5 mV, 40 ms); only cells with a change in <25% were included in the analysis. […] AMPAR-mediatedEPSCs were recorded at −70 mV, and 30 consecutive responses were recorded after stable baseline. […] NMDA component was measured at 60 ms after the stimulation. The NMDA/AMPA ratio was determined by dividing the mean value of 30 NMDA components of EPSPs by the mean value of 30 AMPAR-mediated EPSC peak amplitudes. […] NMDA/AMPA ratio at −40 mV was calculated by using both values, and monitored during the experimental process. […]

In the case of `Oc1c(I)cc(Cl)c2cccnc12` [clioquinol, 5-Chloro-7-Iodo-8-Hydroxyquinoline], the Paired pulse ratio (AMPAR) is reported as “had no effect”, the Paired pulse ratio (AMPAR; listed as CQ) is reported as “has no effect on the paired pulse ratio” and the “NMDA/AMPA ratio (NMDAR function)” value (NMDAR [1]; Shank2^−/− SC-CA1 synapses) is reported as “restored the NMDAR function to a normal level”. The “NMDA/AMPA ratio (NMDAR function)” value (NMDAR [1]; Shank2^−/− SC-CA1 synapses, listed as Clioquinol) was “normalizes the NMDA/AMPA ratio”, the “NMDA/AMPA ratio (NMDAR function)” value (NMDAR [1]; wild-type synapses) was “had no influence” and the “Total level of ZnT3 protein” value (ZnT3 protein) was “has no effect on the total level of ZnT3 protein”. For the same compound, the “Social interaction (time exploring targets, social preference index)” value (Tbr1^+/− mice; Tbr1^+/− (HT) mice) was “improved social interaction deficiencies”, the “Social interaction (time exploring targets, social preference index)” value (Tbr1^+/− mice; Tbr1^+/− (HT) mice, listed as CQ) was “enhances social interaction; also recorded: improves social interaction” and the “Social interaction (time exploring targets, social preference index)” value (Tbr1^+/− mice; wild-type mice) was “had no effect”. The “Social interaction (time exploring targets, social preference index)” value (Tbr1^+/− mice; wild-type mice, listed as CQ) was “has no effect”, the “Social interaction (exploration/sniffing time, social preference index)” value (Shank2^−/− mice; Shank2^−/− (KO) mice) was “improved” and the “Social interaction (exploration/sniffing time, social preference index)” value (Shank2^−/− mice; Shank2^−/− (KO) mice, listed as Clioquinol) was “improves social interaction”. For the same compound, the “Social interaction (exploration/sniffing time, social preference index)” value (Shank2^−/− mice; wild-type (WT) mice) was “not affected”, the “Social interaction (exploration/sniffing time, social preference index)” value (Shank2^−/− mice; wild-type (WT) mice, listed as Clioquinol) was “has no effect” and the “NMDA/AMPA ratio of eEPSCs at −40 mV” value (NMDAR [2]) was “increased”. For the same compound, the “NMDA/AMPA ratio of eEPSCs at −40 mV” value (NMDAR [2]; listed as CQ) was “increases the NMDA/AMPA ratio”.
